Data taken from US20110039779A1 (published 2011).

The chains behind the UniProt entries cited, without tags or fusion partners. Residues count along the entry.
UniProt P08069, 31-935: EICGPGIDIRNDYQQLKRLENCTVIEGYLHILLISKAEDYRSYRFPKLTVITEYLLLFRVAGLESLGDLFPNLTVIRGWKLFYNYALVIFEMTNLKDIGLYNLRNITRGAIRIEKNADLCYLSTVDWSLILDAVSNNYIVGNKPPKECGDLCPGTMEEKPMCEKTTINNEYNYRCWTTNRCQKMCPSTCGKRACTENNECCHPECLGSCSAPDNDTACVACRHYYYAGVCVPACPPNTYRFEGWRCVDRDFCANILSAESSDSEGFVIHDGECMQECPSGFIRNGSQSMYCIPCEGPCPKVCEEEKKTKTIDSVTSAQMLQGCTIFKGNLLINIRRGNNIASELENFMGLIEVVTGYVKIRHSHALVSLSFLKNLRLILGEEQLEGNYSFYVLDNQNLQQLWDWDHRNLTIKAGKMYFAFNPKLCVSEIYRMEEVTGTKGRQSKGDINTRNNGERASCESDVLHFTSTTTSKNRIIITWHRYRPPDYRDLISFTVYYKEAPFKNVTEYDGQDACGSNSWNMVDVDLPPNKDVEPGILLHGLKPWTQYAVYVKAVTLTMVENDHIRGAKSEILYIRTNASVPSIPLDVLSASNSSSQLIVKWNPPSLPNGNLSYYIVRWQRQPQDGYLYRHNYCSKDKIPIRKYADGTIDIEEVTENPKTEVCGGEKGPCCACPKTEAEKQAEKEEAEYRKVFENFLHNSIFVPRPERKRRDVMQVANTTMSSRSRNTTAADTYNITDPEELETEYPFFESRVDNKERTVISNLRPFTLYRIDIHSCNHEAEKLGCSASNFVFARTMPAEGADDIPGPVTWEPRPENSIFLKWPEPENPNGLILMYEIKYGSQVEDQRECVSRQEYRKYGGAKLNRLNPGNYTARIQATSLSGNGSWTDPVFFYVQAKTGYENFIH
UniProt P08069, 31-1367 limits assumed: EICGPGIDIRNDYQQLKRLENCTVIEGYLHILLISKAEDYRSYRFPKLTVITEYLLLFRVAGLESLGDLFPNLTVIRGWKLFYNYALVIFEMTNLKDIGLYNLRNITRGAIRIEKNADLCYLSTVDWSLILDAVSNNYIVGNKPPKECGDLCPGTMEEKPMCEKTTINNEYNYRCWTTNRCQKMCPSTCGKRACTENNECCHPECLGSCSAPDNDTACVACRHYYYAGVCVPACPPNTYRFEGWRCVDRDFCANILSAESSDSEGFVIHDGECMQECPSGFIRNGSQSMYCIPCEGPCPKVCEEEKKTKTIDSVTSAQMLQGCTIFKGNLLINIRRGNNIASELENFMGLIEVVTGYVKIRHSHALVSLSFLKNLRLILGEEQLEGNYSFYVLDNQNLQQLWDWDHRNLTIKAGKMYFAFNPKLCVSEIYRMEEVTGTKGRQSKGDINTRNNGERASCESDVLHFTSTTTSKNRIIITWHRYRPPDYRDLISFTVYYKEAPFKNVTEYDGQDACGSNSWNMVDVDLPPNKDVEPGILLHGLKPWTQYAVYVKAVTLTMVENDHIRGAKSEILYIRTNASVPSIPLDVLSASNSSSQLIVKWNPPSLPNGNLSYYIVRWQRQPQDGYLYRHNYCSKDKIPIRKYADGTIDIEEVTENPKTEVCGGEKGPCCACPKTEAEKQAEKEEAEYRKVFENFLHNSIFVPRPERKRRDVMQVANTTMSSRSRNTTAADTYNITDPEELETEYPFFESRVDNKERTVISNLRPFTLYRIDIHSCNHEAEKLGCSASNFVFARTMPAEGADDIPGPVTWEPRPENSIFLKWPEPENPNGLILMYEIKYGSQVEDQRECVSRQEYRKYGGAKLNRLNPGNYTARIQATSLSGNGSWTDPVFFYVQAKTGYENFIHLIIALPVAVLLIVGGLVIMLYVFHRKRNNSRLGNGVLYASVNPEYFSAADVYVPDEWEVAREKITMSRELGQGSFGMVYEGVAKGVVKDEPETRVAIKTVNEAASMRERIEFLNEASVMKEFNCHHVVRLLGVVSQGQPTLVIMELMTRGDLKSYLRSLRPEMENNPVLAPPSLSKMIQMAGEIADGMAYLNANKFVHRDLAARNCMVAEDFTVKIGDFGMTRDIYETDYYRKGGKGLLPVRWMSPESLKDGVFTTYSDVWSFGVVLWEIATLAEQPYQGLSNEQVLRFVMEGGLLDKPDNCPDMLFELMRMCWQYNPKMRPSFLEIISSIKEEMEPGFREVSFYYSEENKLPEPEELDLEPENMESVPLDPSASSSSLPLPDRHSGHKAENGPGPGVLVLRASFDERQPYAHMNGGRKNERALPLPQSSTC
UniProt P06213, 28-1382 limits assumed: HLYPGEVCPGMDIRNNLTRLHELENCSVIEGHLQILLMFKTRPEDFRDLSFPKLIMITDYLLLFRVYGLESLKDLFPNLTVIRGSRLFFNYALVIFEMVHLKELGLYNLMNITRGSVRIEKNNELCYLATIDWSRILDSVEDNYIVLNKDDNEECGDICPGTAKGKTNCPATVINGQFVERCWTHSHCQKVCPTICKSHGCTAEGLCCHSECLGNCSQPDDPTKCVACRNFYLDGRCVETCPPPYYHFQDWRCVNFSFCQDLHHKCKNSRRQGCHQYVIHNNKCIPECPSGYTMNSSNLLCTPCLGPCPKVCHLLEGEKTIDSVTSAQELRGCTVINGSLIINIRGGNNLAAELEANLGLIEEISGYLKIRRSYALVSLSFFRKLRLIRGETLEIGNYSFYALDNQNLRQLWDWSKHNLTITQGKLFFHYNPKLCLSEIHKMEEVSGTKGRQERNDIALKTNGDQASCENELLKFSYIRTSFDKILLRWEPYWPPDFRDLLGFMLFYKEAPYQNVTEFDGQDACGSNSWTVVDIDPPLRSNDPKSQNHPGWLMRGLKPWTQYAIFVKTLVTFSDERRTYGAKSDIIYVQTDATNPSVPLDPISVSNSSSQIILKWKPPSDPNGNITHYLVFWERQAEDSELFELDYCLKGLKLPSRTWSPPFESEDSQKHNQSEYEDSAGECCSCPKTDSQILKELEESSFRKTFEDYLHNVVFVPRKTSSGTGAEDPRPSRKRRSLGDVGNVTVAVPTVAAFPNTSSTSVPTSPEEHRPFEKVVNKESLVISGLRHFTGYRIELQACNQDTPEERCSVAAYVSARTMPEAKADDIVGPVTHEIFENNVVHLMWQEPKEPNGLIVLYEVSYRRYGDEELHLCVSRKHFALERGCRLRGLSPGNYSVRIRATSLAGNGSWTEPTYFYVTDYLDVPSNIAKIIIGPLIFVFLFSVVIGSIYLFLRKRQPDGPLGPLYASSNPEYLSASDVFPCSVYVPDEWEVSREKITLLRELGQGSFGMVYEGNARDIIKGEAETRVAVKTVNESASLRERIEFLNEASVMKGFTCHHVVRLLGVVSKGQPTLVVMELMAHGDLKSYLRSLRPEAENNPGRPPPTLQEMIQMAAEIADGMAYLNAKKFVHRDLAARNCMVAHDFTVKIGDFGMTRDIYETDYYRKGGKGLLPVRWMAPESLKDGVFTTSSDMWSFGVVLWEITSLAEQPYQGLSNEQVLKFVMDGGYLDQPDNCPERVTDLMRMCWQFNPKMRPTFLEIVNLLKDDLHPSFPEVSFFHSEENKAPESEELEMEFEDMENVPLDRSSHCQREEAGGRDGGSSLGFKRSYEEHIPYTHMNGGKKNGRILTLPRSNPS

What was measured:
[1] = biological target: T1, His-tagged soluble recombinant human IGF-IR (srhIGF-1R-his; R&D systems) (human, UniProt P08069 31-935); experiment: AlphaScreen competition with biotinylated hIGF-1 on srhIGF-1R-his
T1 construct: extracellular domain; Bought protein; also called extra-cellular domain of IGF-1R; not shown: His tag
Procedure: Binding Assays. […] Detection of the receptor ligand interaction was measured in an amplified luminescent proximity homogeneous assay (ALPHAScreen; BioSignal-Packard, Montreal). The assay was performed in 384-well Nunc™ white polystyrene microplates (Nalge Nunc International, Naperville, Ill.) with a final volume of 40 μL. […] Each concentration of competitor was assayed in duplicate. […] The second step of the assay was to add acceptor beads and the incubation continued for 0.5 hr. The final step was to add donor beads and the incubation continued for an additional 1 hr. […] Primary data were background corrected, normalized to buffer controls and then expressed as % Specific Binding. The data were fit to a four-parameter non-linear regression analysis (y=min+(max-min)/(1+10̂((log IC₅₀-x)*Hillslope))), which was used to determine IC₅₀ values. The Z′-factor for this assay is greater than 0.7 (Z′=1-(3σ++3σ−)/|μ+−μ−|) and the signal-to-background (SB) ratio was between 40 and 70.

[2] = biological target: T2, Human IGF-1R (HIGF-1R), purified from BHK cells stably transfected with IGF-1R cDNA (human, UniProt P08069 31-1367); experiment: competition with 125I-IGF-1 on purified HIGF-1R (IGF-1 displacement)
T2 construct: Receptor preparation of the PEG, SPA and kinase assays; also called HIGFIR; human insulin-like growth factor-1 receptor

[3] = biological target: T2, Human IGF-1R (HIGF-1R), purified from …; experiment: 125I-IGF-1 competition on purified HIGF-1R (affinity assay of Table 4); unit inferred
[4] = biological target: T2, Human IGF-1R (HIGF-1R), purified from …; experiment: column 'Binding (nM)'; same values as Kd of Table 9; 125I-IGF-1 competition on purified HIGF-1R
[5] = biological target: T3, human insulin-like growth factor-1 receptor (HIGF-1R) (human, UniProt P08069 31-1367); experiment: 125I-IGF-1 displacement, SPA-assay
T3 construct: Detergent-solubilised receptor purified on WGA-agarose; also called HIGFIR
Text: In certain cases, a scintillation proximity assay (SPA assay) was used to determine IGF-1R affinity.

[6] = biological target: T4, human insulin receptor (HIR) (human, UniProt P06213 28-1382, limits assumed); experiment: HIR affinity, measured similarly to the IGF-1R displacement assay (tracer not named)
T4 construct: preparation not described

| IC50 [1] | IC50 [2] | Binder | further results |
| --- | --- | --- | --- |
| 1600 nM | 13000 nM | EGSLDESFYDWFERQLGGYSWLRDVLMEKQAQLKREGSVGRQE (two Pox units (8-amino-3,6-dioxaoctanoic acid; printed 'POX2') between the two peptide parts) [F255] | – |
| 510 nM | 890 nM | EVDRDCQARPCGDAANFYDWFGQQGTE [F269] | – |
| 7.5 nM | 57 nM | SFYSCLESLVNAPAEKSRGQWEGCRK [F296] | – |
| 14 nM | 25 nM | VQDDCRGRPCGDADSFYEWFDQQAS [F263] | – |
| 9.2 nM | 89 nM | SFYSCLESLVQGPAEKSRGQWEGCRK [F293] | – |
| 5.2 nM | 64 nM | SFYSCLESLVNAPAEKSRGQWDACRK [F298] | – |
| – | 1500 nM | TLNPRGPWEGSRGSMDDSFYRWFERQLE [F272] | – |
| – | – | NFYGCLLDLSLGVPSFGWRRRCITA [F408] | Kd [3]: 1.6 nM; Kd [4]: 1.6 nM |
| – | – | DFYGCLLDLSLGVPSLGWRRRCITA (also called Test Article F429) [F429] | Kd [3]: 0.63 nM; Kd [4]: 0.63 nM |
| 8400 nM | 7600 nM | VGRASGFPENFYDWFGRQLSLQSGEQRR (N-terminal 'Ac-' as printed) [F287] | – |
| 320 nM | – | ESDVWAQPQRRNDWPGYHWLSR (N-terminal 'Ac-' as printed) [F288] | – |
| 5100 nM | 1600 nM | GSGGYASRDESFYEWFERQLA [F276] | – |
| – | – | QFYGCLLDLSLGVPSFGWRRRCITA [F138] | Kd [5]: 6.1 nM; Kd [6]: 46 nM |
| 2300 nM | 370 nM | EIQRDCQGRPCGDAANFYDWFVQQDSE [F268] | – |
| 28 nM | 190 nM | SFYSCLESLVNGPAEKSRGQWDGCR [F249] | – |
| 1900 nM | 1100 nM | ETGRECWGRPCGEADSFYDWFVQQGSE [F267] | – |
| – | 44 nM | RQWDCRGRPCGDAESFYEWFDQQRS [F264] | – |
| – | 1400 nM | TFYSGPVSLLTGTPRTNRSAWERGRGSLDDSFYDWFERQLSR [F274] | – |
| 5600 nM | 1700 nM | RGNVGGGSLDESFYEWFERQLGR [F271] | – |
| – | 760 nM | TGAPQPNRGPLDRCRGSLDECFYGWFERQLL [F273] | – |
